Experimental findings from patent US20050136053A1 (DYAX, published 2005) are described below.

Amino acid sequences for entries named in this document (tags omitted). A change or cut given only in a name is not applied to a line headed by its entry.
UniProt P14753: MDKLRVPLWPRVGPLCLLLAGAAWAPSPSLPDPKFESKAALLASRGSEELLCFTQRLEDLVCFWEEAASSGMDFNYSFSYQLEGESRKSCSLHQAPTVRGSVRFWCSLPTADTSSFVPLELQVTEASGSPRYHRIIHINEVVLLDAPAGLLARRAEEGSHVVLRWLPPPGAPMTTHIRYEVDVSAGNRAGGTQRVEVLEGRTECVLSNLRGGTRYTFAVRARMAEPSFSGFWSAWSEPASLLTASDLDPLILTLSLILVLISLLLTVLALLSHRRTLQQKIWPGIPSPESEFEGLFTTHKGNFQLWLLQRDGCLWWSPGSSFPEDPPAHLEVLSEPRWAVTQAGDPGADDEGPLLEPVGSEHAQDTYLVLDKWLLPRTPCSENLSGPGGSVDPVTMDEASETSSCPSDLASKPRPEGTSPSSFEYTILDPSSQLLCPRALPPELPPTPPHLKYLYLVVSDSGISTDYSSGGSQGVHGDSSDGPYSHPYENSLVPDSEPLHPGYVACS

The target of the test is Tie1-EpoR chimeric receptor on Ba/F3 cells (human; mouse) (UniProt P14753). In words: cell-based or functional assay.

For the substance anti-Tie1 antibody p-A1, IgG, the Average MTT activity in BaF3 cell assay (treatment E3 + PA1) amounted to 0.6. As to anti-Tie1 antibody p-A10, IgG, the Average MTT activity in BaF3 cell assay (treatment E3 + PA10) was determined as 0.65.
